Compound activity from PubChem BioAssay.
Sfp inh: qHTS Assay for Inhibitors of Bacillus subtilis Sfp phosphopantetheinyl transferase (PPTase) | Biochemical Sfp PPTase activity, qHTS | Potency, µM, without a hit: max response, negative = inhibition, most hits filed as inhibitors | actives 3.5% (n = 310,000) | AID 1490, 2009 | 4'-phosphopantetheinyl transferase ffp (Bacillus subtilis), Q9F4F7; active = well fitted inhibition curve with a large enough effect; inconclusive = small, poorly fitted or top-dose-only effect, or another doubt; inactive = no such curve, though single readings can be large or run the other way;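 note: the enzyme is Sfp with the accession as filed and its product quenches rhodamine fluorescence; potency is the fitted concentration of half-maximal effect; 0% = enzyme reaction without inhibitor and -100% = no enzyme wells; top concentration of the series not given in the record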
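Fluorescence-quenching assay: 15 nM Sfp-PPTase preincubated 15 min at room temperature with compound, then 5 uM rhodamine-CoA and 12.5 uM BHQ-2-labelled YbbR peptide added. Fluorescence (ex 525/em 598 nm) read at start and after 30 min; difference gives rate.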
ALDH1A1 inh: ALDH1A1 (human) enzyme inhibition. P00352. Purified ALDH1A1, NADH fluorescence, propionaldehyde substrate. Potency, µM (highest dose often 75.3 µM), inactives show at the highest dose activity, negative = inhibition, actives largely listed as inhibitors. hit rate 7.3% among 220,000. AID 1030; active means well fitted inhibition curve with a large enough effect, not every such curve was filed as active; inconclusive means small, poorly fitted or top-dose-only effect, or another doubt; inactive means no such curve, though single readings can be large or run the other way;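 further: potency means the concentration at half of the fitted maximal effect; plate controls were no enzyme wells and a reference inhibitor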
Lamin A splicing: LMNA splicing modulation | HeLa LMNA splicing GFP/RFP minigene ratio, 48 h | Potency, µM (top dose mostly 46.1 µM), for the others: at the top dose ratio change, negative = inhibition, usual class: inhibitors | hit rate 0.01% among 200,000; active means well fitted inhibition curve with a large enough effect in the signal ratio, with a control signal flat, not every such curve was filed as active; inconclusive means small, poorly fitted or top-dose-only effect, or effect the other way, or a change in a side signal; the % refers to the signal ratio; further: potency means the concentration at half of the fitted maximal effect; on the % scale 0 is the no-effect control and ±100 the full control effect
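S3 HeLa stable clones carrying a lamin A-EGFP splicing minigene plus DsRed2 were seeded at 600 cells/well in Opti-MEM with 2% FBS, pin-dosed and incubated 48 h at 37°C. Acumen cytometry (488 nm) gave the GFP/RFP total-intensity ratio.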
miR-21 reporter: miR-21 reporter, rising signal | HeLa miR-21 FLuc reporter, luciferase, 48 h | Potency, µM (highest dose often 38.3 µM), for inactives: at the top dose reporter change, positive = more light | 340,000 tested, under 10 active | AID 2288; active = well fitted rising curve with a large enough effect; inconclusive = small, poorly fitted or top-dose-only effect; inactive = no such curve, though single readings can be large or run the other way;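 further: % of control where 0% means no effect; miR-21 action dims this reporter so a rising signal means less miR-21 action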
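Compounds were titrated across several concentrations (up to approximately 40 uM) and incubated 48 hours with HeLa miR-21-FLuc reporter cells (miR-21 target sequence downstream of FLuc, endogenous miR-21). Readout was firefly luciferase luminescence after lytic detection reagent.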
G9a block: blocks human histone lysine methyltransferase G9a; G9a H3K9 monomethylation, AlphaScreen, 2 h; Potency, µM (highest dose often 102 µM), for inactives: at the top dose activity, negative = inhibition, usual class: inhibitors; hit rate 8.8% among 350,000; AID 504332; further: potency means the concentration at half of the fitted maximal effect; on the % scale 0 is the no-effect control and ±100 the full control effect; nearly all actives have a fitted effect of over 75% in size
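Quantitative HTS format: methyltransferase activity on a biotin-tagged H3K9 peptide is measured by AlphaScreen, using a rabbit anti-monomethyl-H3K9 antibody with streptavidin donor and anti-IgG acceptor beads. Final levels are 20 nM enzyme, 500 nM peptide, 20 uM SAM; 2 h RT.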
JMJD2E inh: JMJD2E (human) inhibition. JMJD2E catalytic domain, FDH-coupled NADH fluorescence (FDH is formaldehyde dehydrogenase). Potency, µM (series often up to 57.1 µM), for inactives: top-dose activity change, negative = inhibition, actives largely listed as inhibitors. hit rate 1.6% among 230,000; active means well fitted inhibition curve with a large enough effect, not every such curve was filed as active; inconclusive means small, poorly fitted or top-dose-only effect, or another doubt; inactive means no such curve, though single readings can be large or run the other way;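 further: potency means the concentration at half of the fitted maximal effect; 0% = wells with enzyme and -100% = buffer wells without enzyme; nearly all actives have a fitted effect of over 50% in size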
Active calls of the source: *; ? = inconclusive; nt = no result; [ ] = dose if it differs, or a comment. Compounds with a hit are over-represented: about 13% of the library has one in this group of screens. Unless noted, the call rests on the fitted dose curve; in most records, active means well fitted curve in the direction sought with a large enough effect; inconclusive means small, poorly fitted or top-dose-only effect, or another doubt; inactive means no such curve, though single readings can be large; an effect the other way counts as inactive or inconclusive.

SMILES	Sfp inh	ALDH1A1 inh	Lamin A splicing	miR-21 reporter	G9a block	JMJD2E inh
CC1(C)Cc2c(C#N)c(SCC(=O)c3ccccc3)nc(N3CCOCC3)c2CS1	-7.7%	12.6µM*	-16.5%	0.2%	-37.4%[12.7 µM]	?
COC(=O)c1ccc(CSc2nc(N3CCOCC3)c3c(c2C#N)CC(C)(C)OC3)o1	?	1.26µM*	-1.7%	-4.0%	-46.0%[59 µM]	-0.1%
CC(C)Cc1nc(N2CCOCC2)c(C#N)c2c1COC(C)(C)C2	19.4%	?	-7.9%	-9.8%	7.5%[59 µM]	?
CCN(CC)C(=O)c1ccccc1NS(=O)(=O)c1cccs1	25.2%	nt	nt	0.1%	nt	nt
COc1ccc(CNc2ncnc3c2c(-c2ccccc2)cn3-c2ccccc2)cc1	nt	nt	-24.5%[46 µM]	12.3%	-15.0%[59 µM]	nt
Cc1ccc(S(=O)(=O)Nc2ccccc2C(=O)N2CCCCCC2)cc1	6.3%	nt	nt	5.9%	nt	nt
CCOC(=O)CCSc1nc(N2CCOCC2)c2c(c1C#N)CC(C)(C)OC2	-1.5%	nt	nt	-3.8%	35.5µM*	nt
COc1ccc(Cc2nnc(N/N=C/c3ccc(O)cc3)[nH]c2=O)cc1OC	15.1%	3.9%	?	?	88.6%[59 µM]	14.1µM*
CCC/C=N/Nc1nnc(Cc2ccc(OC)c(OC)c2)c(=O)[nH]1	44.7µM*	nt	nt	-3.4%	?	nt
COc1ccc(Cc2nnc(N/N=C/c3ccc(Br)cc3)[nH]c2=O)cc1OC	6.3%	10.7%	nt	-2.8%	nt	7.6%
Cc1ccccc1Cn1c(CN2CCN(c3cc(Cl)ccc3C)CC2)nc2c1c(=O)[nH]c(=O)n2C	nt	nt	nt	3.7%	-2.9%[59 µM]	nt
Cc1ccc(Cl)cc1N1CCN(Cc2nc3c(c(=O)[nH]c(=O)n3C)n2Cc2ccccc2F)CC1	-9.8%	-5.0%	?	-1.3%	39.8µM*	4.1%
CCCCn1c(CN2CCN(c3ccc(OC)cc3)CC2)nc2c1c(=O)[nH]c(=O)n2C	nt	nt	nt	-12.1%	?	nt
COc1ccc(N2CCN(Cc3nc4c(c(=O)[nH]c(=O)n4C)n3CC(C)C)CC2)cc1	nt	nt	nt	-0.4%	25.1µM*	nt
Cc1cc(=O)[nH]c2ccccc12	12.5%	6.7%	6.2%	-11.2%	-11.7%[59 µM]	-11.6%
Cc1[nH]c(=O)cc2ccccc12	10.2%	?	8.0%	-2.5%	25.1µM*	2.0%
Cc1ccc(OCCCOc2cccc3cccnc23)cc1C	89.1µM*	5.0%	?	-47.8%	8.7%[12.7 µM]	?
Cc1cccc(OCCCOc2cccc3cccnc23)c1C	79.4µM*	-9.9%	5.7%	-25.6%	82.6%	?
CC1=C(C(=O)OC2CCCCCC2)C(c2cccc(F)c2F)CC(=O)N1 (stereo not drawn)	nt	nt	nt	1.8%	-26.1%[59 µM]	nt
COc1cccc(-n2c(COc3ccccc3C)nnc2SCC(=O)O)c1	1.7%	0.2%	1.4%	-1.4%	44.7µM*	12.2%

Entries from the list above with fluorine (2):
SMILES	Sfp inh	ALDH1A1 inh	Lamin A splicing	miR-21 reporter	G9a block	JMJD2E inh
Cc1ccc(Cl)cc1N1CCN(Cc2nc3c(c(=O)[nH]c(=O)n3C)n2Cc2ccccc2F)CC1	-9.8%	-5.0%	?	-1.3%	39.8µM*	4.1%
CC1=C(C(=O)OC2CCCCCC2)C(c2cccc(F)c2F)CC(=O)N1 (stereo not drawn)	nt	nt	nt	1.8%	-26.1%[59 µM]	nt

Next records:
SMILES	Sfp inh	ALDH1A1 inh	Lamin A splicing	miR-21 reporter	G9a block	JMJD2E inh
COc1ccc(-n2c(SCC(=O)N3CCCCC3C)nnc2-c2cccnc2)cc1 (stereo not drawn)	?	10µM*	-17.2%	1.6%	39.8µM*	?
COc1cccc(-c2nnc(SCC3CNC(=O)O3)n2-c2ccc(Cl)cc2)c1 (stereo not drawn)	7.7%	0.631µM*	2.0%	-4.8%	14.1µM*	9.5%
Cc1ccccc1OCc1nnc(SCC(=O)O)n1-c1ccccc1	12.8%	nt	nt	-4.0%	8.6%[0.501 µM]	nt
COc1cccc(-n2c(SCC(=O)O)nnc2-c2cccnc2)c1	11.8%	-11.4%	-2.2%	-11.4%	56.2µM*	1.4%
COc1ccc(-n2c(SCC(=O)N3CCCC(C)C3)nnc2-c2cccnc2)cc1 (stereo not drawn)	6.3%	?	-3.3%	-6.6%	-2.6%	-12.4%
COc1cccc(-c2nnc(SCC(=O)N3CCCC3=O)n2-c2ccccc2)c1	-1.0%	?	0.3%	-6.6%	?	5.8%
CCOc1ccc(C(=O)Oc2cc(C)[nH]c(=O)c2[N+](=O)[O-])cc1OCC	2.8%	nt	nt	0.1%	?	nt
Cc1ccc(C)c(CN2C(=O)c3ccccc3S(=O)(=O)c3ccc(C(=O)N4CCCCC4)cc32)c1	nt	nt	nt	14.6%	-36.4%[59 µM]	nt
CSc1ncc(Cl)c(C(=O)Nc2cc(C(F)(F)F)ccc2Cl)n1	nt	nt	nt	-0.9%	-5.8%[59 µM]	nt

Grouped by structure: the compounds so far with two or more sulfur atoms (two)
SMILES	Sfp inh	ALDH1A1 inh	Lamin A splicing	miR-21 reporter	G9a block	JMJD2E inh
CC1(C)Cc2c(C#N)c(SCC(=O)c3ccccc3)nc(N3CCOCC3)c2CS1	-7.7%	12.6µM*	-16.5%	0.2%	-37.4%[12.7 µM]	?
CCN(CC)C(=O)c1ccccc1NS(=O)(=O)c1cccs1	25.2%	nt	nt	0.1%	nt	nt
